# Assay results from PubChem BioAssay AID651704 (Broad Institute, 2012).
# Sequences of proteins named here, by UniProt entry; tags and fusion partners are left off. A change or cut given only in a name is not applied to a line headed by its entry.
# UniProt P42568: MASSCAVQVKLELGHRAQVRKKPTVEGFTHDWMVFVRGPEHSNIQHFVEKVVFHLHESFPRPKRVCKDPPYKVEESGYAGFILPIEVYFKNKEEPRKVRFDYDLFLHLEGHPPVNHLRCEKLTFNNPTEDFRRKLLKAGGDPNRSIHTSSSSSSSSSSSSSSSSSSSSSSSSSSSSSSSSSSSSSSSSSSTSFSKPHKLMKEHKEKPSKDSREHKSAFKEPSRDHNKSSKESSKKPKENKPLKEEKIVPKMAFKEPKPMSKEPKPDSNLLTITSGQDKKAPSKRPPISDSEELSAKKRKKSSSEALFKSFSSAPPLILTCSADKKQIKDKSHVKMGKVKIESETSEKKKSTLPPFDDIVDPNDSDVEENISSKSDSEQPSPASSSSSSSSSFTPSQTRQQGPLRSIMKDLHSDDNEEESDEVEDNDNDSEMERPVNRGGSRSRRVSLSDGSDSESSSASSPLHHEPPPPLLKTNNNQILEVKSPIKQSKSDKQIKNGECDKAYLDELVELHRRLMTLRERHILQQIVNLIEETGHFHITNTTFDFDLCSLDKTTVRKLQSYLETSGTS
# Only a part is listed here, and it is no random draw. Calls of active or inactive are those of the source.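 Rule for the calls: active = every replicate reaching a set inhibition limit, whatever the replicate mean (cut at about 25% in these data); inconclusive = mean inhibition reaches that limit but some replicates miss it; inactive = the rest.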
# Biological target: Protein AF-9 (Homo sapiens) (UniProt P42568)
# Test: MLL-AF4/AF9 protein interaction blockers – biochemical, AlphaScreen, biotin-AF4 peptide, FLAG-AF9, single point, primary screen (AID 651704);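 note: 0% = plate neutral control median and 100% = total signal loss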
# Conditions: biotin-AF4 peptide binding to FLAG-AF9, at 10 µM, active compounds read high
row,SMILES,inhibition
1,C[N+]1=C2C=CC=CC=C2SC12C([N+](=O)[O-])=CC([N+](=O)[O-])=C[C-]2[N+](=O)[O-] (stereo unspecified),active: 27.2%
